# Assay results from patent US10881712B2, “Neuroprotective agents derived from spider venom peptides” (THE UNIVERSITY OF QUEENSLAND, priority 2015, dated 2021).
# Columns and labels:
# rASIC1a = target: T1, rASIC1a (Rattus norvegicus, UniProt P55926); assay: Two-electrode voltage clamp (TEVC) on Xenopus laevis oocytes expressing homomeric rASIC1a; assay type: cell-based
# T1 construct: expressed in transfected cells; host or cells: Xenopus laevis oocytes injected with cRNA
# T1 sequence (P55926 1-526): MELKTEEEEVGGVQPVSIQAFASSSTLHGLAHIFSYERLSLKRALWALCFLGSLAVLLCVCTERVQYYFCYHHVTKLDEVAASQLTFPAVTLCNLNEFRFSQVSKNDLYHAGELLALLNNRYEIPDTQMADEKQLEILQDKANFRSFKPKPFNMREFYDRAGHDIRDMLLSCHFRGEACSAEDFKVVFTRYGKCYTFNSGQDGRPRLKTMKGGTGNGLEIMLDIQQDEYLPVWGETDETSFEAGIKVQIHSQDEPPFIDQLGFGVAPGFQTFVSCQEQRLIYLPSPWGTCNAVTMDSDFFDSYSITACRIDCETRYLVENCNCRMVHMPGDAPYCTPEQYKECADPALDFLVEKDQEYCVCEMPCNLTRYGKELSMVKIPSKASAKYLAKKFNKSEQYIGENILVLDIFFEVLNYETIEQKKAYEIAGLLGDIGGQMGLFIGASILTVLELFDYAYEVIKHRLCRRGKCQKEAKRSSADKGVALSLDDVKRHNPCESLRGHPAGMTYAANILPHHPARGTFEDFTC
# Experimental: The ability of the peptides of the invention to modulate ASIC currents was assessed using two-electrode voltage clamp (TEVC) electrophysiology experiments performed on Xenopus laevis oocytes expressing homomeric ASIC channels. Xenopus oocytes are widely used as an expression system for functional characterisation of ion channel modulators. TEVC allows measurement of whole-cell ion channel currents while controlling the membrane potential.
# Oocytes were harvested from anaesthetised female X. laevis then defolliculated by treatment with collagenase (Sigma, type I). Oocytes were injected with in vitro transcribed ASIC cRNA (capped RNA). Oocytes were kept at 17-18° C. in ND96 solution containing 96 mM NaCl, 2 mM KCl, 1.8 mM CaCl2, 2 mM MgCl2, 5 mM HEPES, 5 mM pyruvic acid, 50 μg/ml gentamicin (pH 7.4), and fetal horse serum (2.5%), and experiments were performed at room temperature (21-22° C.) 1-3 days after cRNA injection. Oocytes were clamped at −60 mV (Warner OC-725C oocyte clamp; Warner Instruments, CT, USA) using two standard glass microelectrodes of 0.5-2 MΩ resistance when filled with 3 M KCl. Data acquisition and analysis were performed using pCLAMP software, Version 10 (Axon Instruments, CA, USA). Currents were elicited by a drop in pH from 7.45 to 6.0 using a microperfusion system to allow rapid solution exchange. All experiments were performed using ND96 solution spiked with 0.1% BSA in order to minimise adsorption of peptides to plastic tubing.
# [1] = tested on: spontaneously hypertensive rats (SHR); assay: Focal reperfusion (endothelin-1) stroke model in conscious SHR, i.c.v. administration; assay type: in vivo, rat
# Experimental: The neuroprotective efficacy of Hi1a was assessed in a rat model of focal cerebral ischemia. In vivo experiments were conducted using a focal reperfusion model of stroke in conscious spontaneously hypertensive rats (SHR) as previously reported (McCarthy et al., Neuropharmacology 99, 650-657, 2015). Two 23-gauge stainless steel guide cannulae were stereotaxically implanted into anaesthetised animals (ketamine 75 mg/kg; xylazine 10 mg/kg; intraperitoneal) 5 days prior to stroke induction. The first cannula was implanted 3 mm dorsal to the right middle cerebral artery for stroke induction. The second cannula was implanted into the left lateral ventricle for drug administration.
# After 5 days recovery, stroke was induced in conscious rats by inserting a 30-gauge injector protruding 3 mm below the previously implanted cannula. […] Only animals that achieved a level 4 stroke were included in the study. Typical behaviours associated with a level 4 stroke include continuous ipsilateral circling, clenching, dragging, failure to extend the left contralateral forelimb, chewing, jaw flexing, and shuffling with forepaws.
# Compared to models of middle cerebral artery occlusion (MCAO) achieved by surgical exposure of the artery, this model has the advantage of minimal surgical intervention in the brain, and the stroke is induced in the absence of anaesthetics, which can confound the results of drug studies (Callaway et al., 1999; Sharkey et al., 1993). Stroke-induced motor deficit was assessed by counting the number of foot faults made while rats traversed a gradually narrowing ledged beam (McCarthy et al., Stroke 40, 1482-1489, 2009). Animals were trained to traverse the beam on two consecutive days prior to pre-stroke assessment. For the neurological score, postural abnormalities were assessed by elevating the rat by the tail above a flat surface and grading the severity of thorax twisting and the angle of forelimb extension. Both indicators of neurological health are scored between 0 and 3, with a score of 0 corresponding to no twisting of the thorax or complete forelimb extension towards the flat surface. A score of 3 corresponds to severe thorax twisting and a failure to extend the forelimb. The score for thorax twisting and forelimb extension are summed to give a total possible score of 6, which represents severe neurological deficit. Both behavioural tests were performed prior to stroke, and at 24 and 72 h after stroke.
# At 72 h post-stroke, rats were re-anaesthetised (ketamine 75 mg/kg; xylazine 10 mg/kg; intraperitoneal) and transcardially perfused with physiologically buffered saline. Brains were removed, snap frozen and sectioned (16 μm) at eight pre-determined forebrain levels (−3.20 mm to 6.8 mm) relative to bregma. Sections were imaged, and infarct volumes were measured using the ballistic light method and corrected for edema (McCarthy et al., Stroke 40, 1482-1489, 2009).
# The doses of Hi1a and PcTx1 were chosen to give approximately equivalent molar concentrations as Hi1a is twice the molecular mass of PcTx1. Drugs were dissolved in saline and infused in a volume of 3 μl over 3 min. At 3 days after stroke, the brains were perfused, removed, then snap frozen and sectioned to determine the infarct size.
# In a separate series of experiments, Hi1a (2 ng/kg) was administered i.c.v. to SHR at 2, 4 or 8 hours after stroke induction. Motor-coordination (ledged beam test) and stroke-related postural abnormalities (neurological test) were evaluated at days 1 and 3 post-stroke. At 3 days after stroke, the brains were perfused, removed, then snap frozen and sectioned to determine the infarct size.
# [2] = 2 ng/kg i.c.v., 24 and 72 h post-stroke
structure (smiles),measurement,setting,value
CC[C@H](C)[C@@H]1NC(=O)[C@@H](NC(=O)[C@H](CCC(=O)O)NC(=O)[C@H](CC(N)=O)NC(=O)[C@@H](N)CO)CSSC[C@@H]2NC(=O)[C@@H]3CSSC[C@@H](C(=O)N[C@H](C(=O)N4CCC[C@H]4C(=O)N[C@H](C(=O)N4CCC[C@H]4C(=O)NCC(=O)N[C@@H](Cc4ccccc4)C(=O)N[C@H]4CSSC[C@@H]5NC(=O)[C@@H]6CSSC[C@@H](C(=O)N[C@@H](C)C(=O)N7CCC[C@H]7C(=O)N[C@H](C(=O)N[C@H](C(=O)O)[C@@H](C)O)[C@@H](C)CC)NC(=O)[C@H](C(C)C)NC(=O)[C@H](CO)NC(=O)[C@H](CO)NC(=O)[C@H](CCCCN)NC(=O)[C@H](CC(N)=O)NC(=O)CNC(=O)[C@H](CO)NC(=O)[C@H](CCCNC(=N)N)NC(=O)[C@H](CCCCN)NC(=O)[C@H](Cc7c[nH]c8ccccc78)NC(=O)[C@H](CSSC[C@H](NC(=O)[C@H](CCC(N)=O)NC(=O)[C@H](CCCCN)NC(=O)[C@H](Cc7c[nH]c8ccccc78)NC(=O)[C@H](CCCCN)NC(=O)[C@H](C(C)C)NC(=O)[C@H](CC(C)C)NC4=O)C(=O)N[C@@H](CC(=O)O)C(=O)NCC(=O)N[C@@H](CCCNC(=N)N)C(=O)N[C@@H](CCC(=O)O)C(=O)N[C@@H](CCCNC(=N)N)C(=O)N[C@@H](CC(=O)O)C(=O)N6)NC(=O)[C@H](CCC(=O)O)NC(=O)[C@H](CC(C)C)NC(=O)CNC(=O)[C@H](C)NC5=O)[C@@H](C)CC)C(C)C)NC(=O)[C@H](C(C)C)NC(=O)[C@H](CCC(=O)O)NC(=O)[C@H](Cc4ccccc4)NC(=O)[C@H](CO)NC(=O)[C@H](Cc4c[nH]cn4)NC(=O)[C@H](CCCNC(=N)N)NC(=O)[C@H](CCCNC(=N)N)NC(=O)[C@H](CCCCN)NC(=O)[C@H](Cc4ccc(O)cc4)NC(=O)[C@H](CSSC[C@H](NC(=O)[C@H](CO)NC(=O)[C@H](CC(C)C)NC(=O)[C@H](Cc4c[nH]c5ccccc45)NC(=O)[C@H](CCCCN)NC(=O)[C@H](CCCNC(=N)N)NC1=O)C(=O)N[C@@H](C(C)C)C(=O)N[C@@H](CC(=O)O)C(=O)N[C@@H](CCCNC(=N)N)C(=O)N[C@@H](CCCCN)C(=O)N[C@@H](CC(N)=O)C(=O)N[C@@H](CC(=O)O)C(=O)N3)NC(=O)[C@H](CCC(=O)O)NC(=O)[C@H](CC(C)C)NC(=O)CNC(=O)[C@H](CCC(=O)O)NC2=O [Hi1a],IC50,rASIC1a,0.46 ± 0.16 nM
same,Rapidly reversible inhibition,"rASIC1a; Table 1, upon washout",No
same,Extent of inhibition of ASIC1a currents (full or incomplete),rASIC1a; at saturating concentrations,incomplete current inhibition
same,Selectivity for ASIC1a over other subtypes,"rASIC1a; over rASIC1b, rASIC2a and rASIC3, from 30 nM data",at least 50 fold
same,Higher potency at ASIC1a over other subtypes,"rASIC1a; over rASIC2a, rASIC3 and rASIC1b, from 1 μM data",> 2000 fold
same,Effect on pH50 of activation,"rASIC1a; peptide applied at pH 7.45, concentration-dependent",shifted to slightly lower values
same,Effect on steady-state desensitisation (SSD) curve,rASIC1a; two concentrations of peptide,pH-independent decrease in the maximum current
same,Reversibility of inhibition (in words),rASIC1a; upon washout,very slowly reversible; also recorded: very slow reversibility
same,Brain concentration equated from dose,[1]; 2 ng/kg i.c.v.,~1.2 nM
same,Infarct volume in cortical and striatal regions (in words),"[1]; 2 ng/kg i.c.v. at 2, 4 or 8 hours post-stroke",reduction in infarct volume; also recorded: reduces infarct size
same,Motor impairment (ledged beam test),[1]; [2],markedly reduced
same,Neurological deficit (neurological score),[1]; [2],markedly reduced
same,Neuronal survival / neuronal architecture (NeuN staining) in penumbral and core regions,"[1]; 2 ng/kg i.c.v., 72 h post-stroke",preservation of neuronal architecture; also recorded: improved neuronal survival
same,Reduction of infarct size,"[1]; single dose 2 ng/kg i.c.v. at 2, 4 or 8 hours post-stroke, volumes at 72 h",63-83%
same,Infarct size in cortical (penumbral) and striatal (core) regions,"[1]; single i.c.v. dose two hours after stroke, Hi1a 2 ng/kg, PcTx1 and mutant 1 ng/kg, 72 h post-stroke",significant reduction in infarct volume; also recorded: reduced infarct size

# Entries after “also recorded” stand apart in the source; their conditions may differ.
